System: Crkl phosphorylation (BCR-ABL substrate)
Type: cell-based

Cc1nc(Nc2ncc(C(=O)Nc3c(C)cccc3Cl)s2)cc(N2CCN(CCO)CC2)n1 [dasatinib, N-(2-chloro-6-methylphenyl)-2-[[6-[4-(2-hydroxyethyl)-1-piperazinyl]-2-methyl-4-pyrimidinyl]amino]-5-thiazolecarboxamide]
Crkl phosphorylation: inhibited in a dose-dependent manner

— patent US20090306094A1 (Bristol-Myers Squibb Company, priority 2006, published 2009)
